This note sets out measurements from patent US20160345827A1, “TWO-PHOTON MICROSCOPY IMAGING RETINA CELL DAMAGE” (POLGENIX, INC., priority 2014, published 2016).

In the assay the test system is Abca4^−/−Rdh8^−/− mice. The assay is described as follows: light-induced retinal degeneration in Abca4^−/−Rdh8^−/− mice, TPM and histology at day 7. The settings on record: 730 nm and 850 nm excitation, day 7 after light; Ret-NH2 1 mg oral gavage, Apo 1 mg i.p.

Regarding `COc1cc(C(C)=O)ccc1O` [apocynin], the “RPE autofluorescence appearance by TPM” value is “RPE appearance similar to mice unexposed to light”.
